ChEMBL document CHEMBL1129067, “Dioxabicyclooctanyl naphthalenenitriles as nonredox 5-lipoxygenase inhibitors: structure-activity relationship study directed toward the improvement of metabolic stability” (J Med Chem, 1996)
pIC50: −log10 of the molar value.

Molecular target: T1, Polyunsaturated fatty acid 5-lipoxygenase (Homo sapiens, UniProt P09917)
T1 sequence (P09917 whole entry): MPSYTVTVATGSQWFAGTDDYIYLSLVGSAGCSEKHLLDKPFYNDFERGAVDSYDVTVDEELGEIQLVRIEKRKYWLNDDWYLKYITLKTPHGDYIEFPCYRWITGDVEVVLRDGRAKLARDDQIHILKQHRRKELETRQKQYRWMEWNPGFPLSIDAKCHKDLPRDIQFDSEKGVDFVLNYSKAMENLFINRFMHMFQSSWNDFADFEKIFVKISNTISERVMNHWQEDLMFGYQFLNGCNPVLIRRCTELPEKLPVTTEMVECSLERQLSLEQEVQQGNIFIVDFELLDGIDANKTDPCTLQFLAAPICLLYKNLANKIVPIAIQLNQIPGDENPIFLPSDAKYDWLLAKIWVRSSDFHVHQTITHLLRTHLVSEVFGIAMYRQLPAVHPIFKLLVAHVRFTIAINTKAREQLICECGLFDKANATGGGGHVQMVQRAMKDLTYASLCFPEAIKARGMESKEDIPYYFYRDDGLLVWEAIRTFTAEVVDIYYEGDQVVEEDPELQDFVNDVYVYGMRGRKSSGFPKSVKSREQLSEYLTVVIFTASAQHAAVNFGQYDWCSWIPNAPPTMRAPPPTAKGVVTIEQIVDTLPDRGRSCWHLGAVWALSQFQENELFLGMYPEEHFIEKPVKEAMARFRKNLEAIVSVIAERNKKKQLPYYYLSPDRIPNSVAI
Assay: Potency to inhibit oxidation of arachidonic acid by recombinant human 5-lipoxygenase

How did the pIC50 turn out when `O=C1OCc2c1cc1cc(OCc3cccc(C4(O)CCOCC4)c3)ccc1c2-c1ccccc1` was run?
Its pIC50 is 6.94.
